System: Chinese hamster ovary cells (CHO-WBL)
Procedure: In the major micronucleus assay, CHO-WBL cells were exposed to at least 3 concentrations of the test object, while vehicle control group and positive control group were set up, with 2 replicated wells for each dose group. In inactivated test system, the administration lasted for 3 and 24 hours, and in S9 activated test system, the exposure to the test object lasted for 3 hours.
When choosing the highest dose for micronucleus frequency assay, the cytotoxicity of dose group of the test object should not substantially exceed 50% of that of the corresponding vehicle control group.
On the premise that the test is valid, the test results are evaluated according to the following criteria:
If the test object simutaneously meets the following criteria, it can be considered as positive:
A significant increase in micronucleus frequency is observed in one or more concentration groups.
If none of the above three points is met, the test object can be considered as negative.

Substance: Mitomycin C
- % binuclear cells containing micronucleus: 19.5%

From patent US20230295159A1, “ATX INHIBITOR, AND PREPARATION METHOD THEREFOR AND USE THEREOF” (SUZHOU ARK BIOPHARMACEUTICAL CO., LTD., priority 2020, published 2023)
